Sequences of proteins named here, by UniProt entry; tags and fusion partners are left off. A change or cut given only in a name is not applied to a line headed by its entry. Residues count along the entry.
UniProt Q12306, 2-97: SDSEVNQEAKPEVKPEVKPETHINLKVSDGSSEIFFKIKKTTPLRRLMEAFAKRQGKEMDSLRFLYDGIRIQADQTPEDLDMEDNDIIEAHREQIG
UniProt Q6VMQ6: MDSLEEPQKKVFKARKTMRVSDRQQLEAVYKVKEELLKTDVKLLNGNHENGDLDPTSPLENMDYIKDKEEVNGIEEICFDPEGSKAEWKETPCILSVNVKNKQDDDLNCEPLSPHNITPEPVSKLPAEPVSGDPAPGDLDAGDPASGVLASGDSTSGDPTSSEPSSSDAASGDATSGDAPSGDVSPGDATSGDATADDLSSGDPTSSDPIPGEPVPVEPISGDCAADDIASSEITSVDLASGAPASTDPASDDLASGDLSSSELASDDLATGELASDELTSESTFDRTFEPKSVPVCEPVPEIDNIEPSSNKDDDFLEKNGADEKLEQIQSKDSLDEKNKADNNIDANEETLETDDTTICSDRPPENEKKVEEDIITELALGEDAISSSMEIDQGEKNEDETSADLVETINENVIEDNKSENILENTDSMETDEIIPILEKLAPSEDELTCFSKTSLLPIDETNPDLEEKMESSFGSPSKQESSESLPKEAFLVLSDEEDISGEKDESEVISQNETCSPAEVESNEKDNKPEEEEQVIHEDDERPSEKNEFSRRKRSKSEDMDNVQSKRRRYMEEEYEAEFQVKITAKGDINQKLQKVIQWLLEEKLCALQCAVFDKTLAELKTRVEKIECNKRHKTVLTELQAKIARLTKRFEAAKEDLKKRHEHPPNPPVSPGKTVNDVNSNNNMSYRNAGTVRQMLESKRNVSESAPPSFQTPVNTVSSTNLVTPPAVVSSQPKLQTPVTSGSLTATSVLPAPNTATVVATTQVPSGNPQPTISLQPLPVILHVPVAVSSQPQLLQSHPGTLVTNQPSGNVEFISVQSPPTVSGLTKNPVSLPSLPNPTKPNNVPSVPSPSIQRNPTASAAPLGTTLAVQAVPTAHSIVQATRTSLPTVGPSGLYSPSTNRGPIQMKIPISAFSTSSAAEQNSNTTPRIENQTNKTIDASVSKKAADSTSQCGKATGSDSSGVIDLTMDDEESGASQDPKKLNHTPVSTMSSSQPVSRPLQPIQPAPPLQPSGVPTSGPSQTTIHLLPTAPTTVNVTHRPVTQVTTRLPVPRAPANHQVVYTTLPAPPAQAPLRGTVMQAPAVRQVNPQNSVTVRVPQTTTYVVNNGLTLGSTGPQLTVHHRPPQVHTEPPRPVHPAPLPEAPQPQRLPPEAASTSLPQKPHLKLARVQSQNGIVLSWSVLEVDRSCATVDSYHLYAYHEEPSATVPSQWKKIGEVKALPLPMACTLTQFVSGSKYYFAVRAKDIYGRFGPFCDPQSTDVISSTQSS

In publication PMC13199644, “Optimized Quantitative Bacterial Two-Hybrid (qB2H) for Protein–Protein Interaction Assessment” (Computational and Structural Biotechnology Journal, 2026):

Molecular target: T1, SMT3 (Saccharomyces cerevisiae, UniProt Q12306)
T1 construct: SMT3; UNIPROT: Q12306; 2-97; Saccharomyces cerevisiae; expressed in transfected cells; host or cells: E. coli BL21(DE3) transformed with VN594 plus a pBRα rpoA-fusion plasmid
Assay: qB2H v1 fluorescence, SMT3 (SUMO) vs SUMO-interacting motifs
Type: cell-based, Escherichia coli
Details: BL21(DE3), qB2H v1, cI-SMT3 2-97, IPTG(20µM)
Description: Precultures of untransformed (for intrinsic fluorescence evaluation) and transformed SB39 cells were diluted (3 μl into 300 μl of fresh medium) in 2-ml microtubes and grown in ThermoMixer C (Eppendorf; 37 °C at 900 rpm) for 2 h. Cultures with an OD600 of approximately 0.5 were then mixed with 100 μl of the same medium containing 4× inducer concentration. Final inducer concentrations, chosen on the basis of maximal signal output, were 20 μM IPTG for v1 or v2 and 200 μM IPTG plus […] for v3 series. The induced cultures were grown overnight at 18 °C, diluted (1 μl) in freshly filtered (0.22 μm) phosphate-buffered saline buffer (1 ml per OD unit), and analyzed using guava easyCyte HT (488-nm blue laser). The gating for event analysis was set to minimize background noise (fewer than 100 gated events per 10 μl of sterile phosphate-buffered saline). Ten thousand events were collected per culture, and the MFI was recorded. […]
MFI(x) represents the MFI of a given condition or culture. MFI(low) corresponds to the fluorescence produced by SB39 cells cotransformed with VN519 and VN550, indicating no detectable interaction (Kd > 100,000 nM). […]
Interactions involving distinct protein domains and folding variants were assessed using qB2H systems v1, v2, and v3. […]

MCAF1_SIM: SUMO-interacting motif, Q6VMQ6 957-981, Homo sapiens (KATGSDSSGVIDLTMDDEESGASQD; SUMO-interacting motif; UniProt Q6VMQ6 957-981, looked up, fragment)
Norm. MFI: 60.82%
